Assay [1] has as its target HSL3 ectodomain (wild type, residues 23–627) (Arabidopsis). The assay can be described thus: ITC; CTNIP4 peptide (140–800 µM, syringe) injected into 15 µM HSL3 ectodomain or variant (cell); 25 °C; 20 mM sodium citrate, 150 mM NaCl, pH 5.0; N fitted to 1. In general terms: ITC needs no label: the signal is the heat of the interaction.
Assay [2] shares this target. As to the kind of experiment: ITC.

Substance CTNIP4(41–70)_(Cys–Cys) (peptide) yielded a fold reduction in affinity against CTNIP4(46–70) (Cys–Cys) in assay [1] of under 60 fold. As to CTNIP4^C58A.C68A(46–70)_(linear), the Kd – broadly, the equilibrium constant for the complex coming apart – in assay [2] is 20.7 µM.

In turn, CTNIP4(44–70)_(Cys–Cys) (peptide) had a fold reduction in affinity against CTNIP4(46–70) (Cys–Cys) in assay [1] of under 60 fold. As for CTNIP4^C58A(46–63) (peptide), the fold reduction in binding affinity against CTNIP4(46–70) (Cys–Cys) in assay [1] came out at 200 fold. On to CTNIP4^I61Y(46–70)_(Cys–Cys) (peptide), for which the fold reduction in binding affinity against CTNIP4(46–70) (Cys–Cys) in assay [1] was 120 fold. In assay [1], CTNIP4(45–70)_(Cys–Cys) (peptide) registered a fold reduction in affinity against CTNIP4(46–70) (Cys–Cys) of under 60 fold. Substance CTNIP4(48–70)_(Cys–Cys) (peptide) had a fold loss of affinity against CTNIP4(46–70) (Cys–Cys) in assay [1] of 200 fold. For CTNIP4(47–70)_(Cys–Cys) (peptide), the fold reduction in binding against CTNIP4(46–70) (Cys–Cys) in assay [1] was determined as 4 fold.

The values are drawn from paper PMC13585564.
